Values of other authors in US20210206820A1 (Purdue Research Foundation, priority 2018, published 2021).

Molecular target: T1, VPAC-2 (Homo sapiens, UniProt P41587)
T1 sequence (P41587 24-438): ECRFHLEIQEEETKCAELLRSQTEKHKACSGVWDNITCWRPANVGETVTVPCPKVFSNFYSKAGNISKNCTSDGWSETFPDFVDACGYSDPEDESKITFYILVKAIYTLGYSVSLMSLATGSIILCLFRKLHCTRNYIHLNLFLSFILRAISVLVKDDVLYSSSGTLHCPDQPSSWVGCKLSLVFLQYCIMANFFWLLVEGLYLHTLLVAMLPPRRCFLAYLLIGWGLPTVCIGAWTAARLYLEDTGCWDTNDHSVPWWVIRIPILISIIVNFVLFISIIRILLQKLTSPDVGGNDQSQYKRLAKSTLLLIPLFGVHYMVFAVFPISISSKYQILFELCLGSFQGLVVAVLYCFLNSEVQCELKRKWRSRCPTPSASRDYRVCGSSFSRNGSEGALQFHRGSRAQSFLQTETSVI
Conditions: VIP compared with PACAP; cited from earlier work

Substance: Vasoactive Intestinal Peptide [VIP]
- Affinity for VPAC-2: equal affinity
